Screens from PubChem BioAssay.
F508del corr: correctors of CFTR F508del function in bronchial epithelial cells. CFBE cells, YFP halide quenching; stimulated with forskolin plus potentiator P3; % fluorescence drop versus neutral controls. activity (quench increase), % at 7.58 µM. 350,000 tested, 0.36% active;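 active means mean added fluorescence quench of at least 8% versus neutral control, with both replicates also reaching 8%; inconclusive means only one of the mean or replicate conditions met; inactive means mean below 8% and not both replicates reaching 8%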;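 further: cells transiently co-express mutant CFTR-F508del with the halide-sensitive YFP; corrector assay measuring rescue of mutant channel to the surface after 24 h compound exposure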
PglD DTNB: blocks C. jejuni PglD acetyltransferase activity | purified PglD enzyme, DTNB colorimetric CoA detection | inhibition, % at 12.5 µM | 360,000 tested, 0.098% active; in the data active means inhibition above about 16%, passing the limit was not always enough; inconclusive means no clear call, values can overlap the other calls
Yeast UUG start: modulators of yeast start codon fidelity, primary screen, whole organism, S. cerevisiae, single point, plate reader; S. cerevisiae UUG-firefly luciferase reporter, luminescence/redox ratio; activity score, % at 18.7 µM; 0.13% of 350,000 active; AID 602363, 2012;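 active = replicate mean at a twofold rise or more, about +100% in these data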;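 also: firefly luciferase made from a UUG start codon reports start codon fidelity; reporter light over untreated wells divided by growth signal over untreated wells; some hits fall short of that in this replicate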
miR122 inh: miR-122 inhibition in Huh7 cells. 340,000 tested, 0.3% active. Huh7 miR-122 Renilla luciferase sensor, 48 h; neutral wells = 0, positive control = 100. activation (reporter increase), % at 12.5 µM;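 active means mean replicate activation score at least 90 and every replicate individually at or above 90; inconclusive means only one of the two criteria met; inactive means neither criterion met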;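 further: higher luciferase means less miR-122 activity so hits act as miR-122 inhibitors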
LGR2 antag: inhibitors of bursicon-induced Drosophila LGR2 receptor cAMP signaling; inhibition, % at 9.99 µM; HEK293 LGR2, CRE-luciferase, bursicon-stimulated, 4 h; 380,000 tested, 0.35% active;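 active means drop in luminescence signal, shown as inhibition above about 50% in the replicate tests, limit read from the data, passing the limit was not always enough; inconclusive means probably only some replicates passing the limit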;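 further: agonist challenge used bursicon conditioned medium at about half maximal strength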
EWS-Fli block: blocks EWS/Fli oncoprotein-driven transcription | A673 NR0B1-luciferase reporter, viability-normalised | inhibition, % at 12.6 µM | 350,000 tested, 0.67% active;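 active means mean inhibition of at least 50% after viability correction, with every replicate also passing that limit; inconclusive means mean reaches 50% but only one of two replicates passes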;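 further: firefly luciferase signal divided by Alamar Blue viability fluorescence both relative to DMSO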
* = called active by the depositor; u = inconclusive; x = not tested or not shown; [ ] = remark or other dose. In the library only some 1.3% were active in any assay of this set; here they are far more common.

SMILES | F508del corr | PglD DTNB | Yeast UUG start | miR122 inh | LGR2 antag | EWS-Fli block
COCC1COS(=O)(=O)NC1(C)C (configuration not stated) | -3.5 | -0.2 | -18.3 | 2.0 | 13.3 | 1.5
Cc1ccc(S(=O)(=O)N2CCC(C(=O)OC(C)C(=O)NC(N)=O)CC2)cc1C (configuration not stated) | -0.7 | x | x | x | 17.5 | 2.2
CCn1nc(C)c(C(=O)Nc2cc(Oc3cc(C)cc(C)c3)cc([N+](=O)[O-])c2)c1C | x | -3.0 | -10.0 | 1.4 | 21.5 | x
CC(=O)c1cc(NC(=O)c2cccc(C(F)(F)F)c2)c(=O)oc1C | 10.7* | x | x | 3.3 | 16.0 | 44.8
NC(CCc1ccccc1)c1csc(Nc2ccc(C(=O)c3ccccc3)cc2)n1 (configuration not stated) | -0.1 | -1.4 | 17.4 | -7.7 | 19.4 | 17.9
NCc1csc(Nc2ccc(C(=O)c3ccccc3)cc2)n1 | 0.5 | 5.9 | -17.0 | -1.3 | -1.6 | 51.7*
COc1cc(NC(=O)Cn2ncc(Cl)c(Cl)c2=O)c(C)cc1[N+](=O)[O-] | -4.1 | x | x | x | 104.5* | 75.9*
O=C(Nc1ccc(F)cc1)N1CC(=O)N2[C@@H](CO)[C@@H](c3ccc(-c4ccccc4)cc3)[C@@H]2C1 | 1.6 | x | x | x | 12.6 | 1.8
O=C(Cc1ccccc1)N1CC(=O)N2[C@H](CO)[C@@H](c3ccc(-c4ccccc4)cc3)[C@@H]2C1 | 11.7* | x | x | x | -4.7 | -1.6
O=C(Nc1ccc(F)cc1)N1CC(=O)N2[C@H](CO)[C@@H](c3ccc(-c4ccccc4)cc3)[C@@H]2C1 | 2.8 | x | x | x | -10.4 | 60.4*
O=C(Cc1ccccc1)N1CC(=O)N2[C@H](CO)[C@@H](c3ccc(-c4ccc(F)cc4)cc3)[C@@H]2C1 | 5.7 | x | x | x | 17.3 | -3.9
CCc1ccc(-c2cnc3ccccc3n2)cc1NC(=O)CNC(=O)c1ccccc1 | -1.8 | 6.6 | -15.7 | 5.0 | -50.5 | -68.7
CCCNC(=O)[C@@H]1[C@@H](CO)[C@@H]2Cn3c(ccc(-c4cccc(F)c4)c3=O)[C@H]1N2C(=O)c1ccccn1 | 1.3 | -0.3 | x | -3.1[16.7 µM] | -16.1 | 4.6
CCOC(=O)N(O)c1ccc(C=Cc2ccccc2)cc1 | 0.6 | x | x | -6.7 | 67.0* | -62.7
O=C(CN1CCOCC1)NNC(=S)Nc1ccc(Cl)cc1 | 2.1 | 1.2 | -22.0 | -2.2 | -14.2 | -5.7

One compound at a time, from the list above.
Results for NCc1csc(Nc2ccc(C(=O)c3ccccc3)cc2)n1 → F508del corr: 0.5; PglD DTNB: 5.9; Yeast UUG start: -17.0; miR122 inh: -1.3; LGR2 antag: -1.6; EWS-Fli block: 51.7*
Results for O=C(Cc1ccccc1)N1CC(=O)N2[C@H](CO)[C@@H](c3ccc(-c4ccc(F)cc4)cc3)[C@@H]2C1 → F508del corr: 5.7; PglD DTNB: x; Yeast UUG start: x; miR122 inh: x; LGR2 antag: 17.3; EWS-Fli block: -3.9
Results for COCC1COS(=O)(=O)NC1(C)C (configuration not stated) → F508del corr: -3.5; PglD DTNB: -0.2; Yeast UUG start: -18.3; miR122 inh: 2.0; LGR2 antag: 13.3; EWS-Fli block: 1.5

The results go on:
SMILES | F508del corr | PglD DTNB | Yeast UUG start | miR122 inh | LGR2 antag | EWS-Fli block
O=C(N/N=C/c1ccccc1OC(F)F)c1cc(-c2ccncc2)nc2ccccc12 | 9.5* | x | x | x | -7.2 | 18.6
O=c1oc2ccccc2cc1-c1nc2c(s1)CCCC2 | 0.4 | 4.2 | -30.6 | 22.3 | 42.8 | 59.6*
O=c1oc2ccccc2cc1-c1nc2ccccc2o1 | 1.4 | 2.8 | -11.4 | 2.7 | 9.5 | -44.0
CCOc1ccc(Cl)cc1-c1cc(C(=O)NC2CCCCC2)[nH]n1 | 1.0 | 0.3 | 3.2 | 0.4 | -11.8 | -13.6
Cc1nc2c(-c3ccccc3)cnn2c(N)c1-c1ccccc1 | -18.1 | -0.5 | -74.5 | x | 56.5* | 40.9
Cc1cc(-c2ccccc2)n2ncc(-c3ccccc3)c2n1 | x | x | x | x | 59.9* | 37.7
CCOC(=O)Cc1c(C)nc2c(-c3ccccc3)cnn2c1C | -0.6 | x | x | x | -83.7 | -48.7
Cc1cc(NC2CCCC2)n2ncc(-c3ccccc3)c2n1 | 4.3 | -7.0 | -74.9 | 9.8 | 63.2* | 62.2*
COc1ccc(-c2cc(C)nc3c(-c4ccccc4)cnn23)cc1 | 1.0 | x | x | x | u | 2.0
CCOC(=O)c1c(NC(=O)COC(=O)CCOc2ccccc2C)sc(C(=O)NC)c1C | 0.3 | -6.8 | -11.0 | -3.1 | -12.2 | 2.8
O=C(NCCC(=O)N1CCN(c2ccccn2)CC1)c1ccc([N+](=O)[O-])cc1 | 2.8 | -0.7 | -31.4 | x | 3.7 | -10.0
O=C(Nc1c(C(=O)N2CCN(c3ccccn3)CC2)oc2ccccc12)c1ccc([N+](=O)[O-])cc1 | 0.8 | -2.7 | -0.6 | 143.5* | x | -4.1
COc1ccc2oc(C(=O)N3CCN(C(=O)c4ccco4)CC3)c(C)c2c1 | 14.3* | -2.8 | -0.6 | -11.2 | -12.1 | 0.1
Cc1c(Cc2ccccc2)c(=O)oc2cc(OCC(=O)NCC(O)c3ccccc3)ccc12 (configuration not stated) | 0.9 | 1.9 | -14.9 | 3.2 | 12.4 | 13.2
Cc1cc(C(=O)COC(=O)C2=COCCO2)c(C)n1-c1ccccc1 | -3.6 | x | x | x | 91.0* | 15.7
CCOC(=O)[C@]12CCCC=C1N(Cc1ccc3c(c1)OCO3)C(=O)[C@H](CC(=O)NCCCOC)C2 | 2.6 | x | x | x | 13.6 | -2.3
COc1ccc(-c2ccccc2)cc1NC(=O)[C@@H]1O[C@H](CO)[C@@H](O)[C@H]1O | 0.6 | -7.1 | 8.3 | 0.7 | -0.1 | -8.2
COCC(=O)Nc1ccc2c(c1)C(=O)N(C)[C@H]1CC[C@H](CC(=O)N3CCc4ccccc4C3)O[C@@H]1CO2 | -2.3 | 1.8 | x | 20.0[16.7 µM] | -12.3 | 2.2
Cc1ccc(Cl)cc1NC(=S)N(CCCN1CCOCC1)Cc1ccccn1 | x | 0.5 | -31.0 | 160.3* | 20.4 | x
CC1(C)CC(=O)C=C(c2cccc(O)c2)C1 | 3.4 | -0.1 | -19.2 | -6.4 | 1.3 | -9.5
C=CCC[C@@H](Cc1ccc(F)cc1)C(=O)OCCNC(=O)[C@H](CC=C)CC(=O)NCCO | 1.9 | -5.4 | 9.8 | -8.4 | -7.5 | -3.8
N#C/C(=C\c1ccc(OCc2ccc(C(=O)O)cc2)cc1)C(=O)N1CCOCC1 | -2.9 | x | x | x | 80.2* | 81.0*
COc1cc(/C=C(\C#N)C(=O)N2CCOCC2)ccc1OCc1ccccc1 | 0.1 | x | x | x | -32.8 | -50.4
O=C(COC(=O)COc1ccc(Cl)cc1)NCCNC(=O)COC(=O)COc1ccc(Cl)cc1 | 1.5 | 3.2 | -15.2 | -0.2 | -0.9 | 2.8
C[C@@H]1CN([C@H](C)CO)C(=O)Cc2cc(NC(=O)Nc3ccc4c(c3)OCO4)ccc2O[C@@H]1CN(C)CC1CC1 | 0.2 | 0.5 | -13.1 | -2.5[16.7 µM] | -23.5 | -1.9
CCOc1ccccc1NC(=O)c1nc(S(=O)(=O)Cc2cccc(C)c2)ncc1Cl | 4.1 | -4.5 | -17.3 | -15.7 | 4.0 | 58.4*
COC(=O)c1ccccc1NC(=O)c1nc(S(=O)(=O)Cc2ccccc2)ncc1Cl | 2.3 | 5.1 | -10.1 | 9.2 | 13.7 | 62.9*
CCc1nnc(NC(=O)c2nc(S(=O)(=O)Cc3cccc(C)c3)ncc2Cl)s1 | 4.8 | 2.5 | -21.5 | -19.0 | -19.2 | x
CC(=O)Nc1ccc(NC(=O)c2nc(S(=O)(=O)Cc3ccccc3)ncc2Cl)cc1 | -5.9 | 4.0 | 6.8 | 5.7 | -13.0 | x
O=C(NNC(=O)c1cccs1)c1csc(N2CCOCC2)n1 | 0.9 | 0.9 | -10.5 | -4.7 | 15.6 | -0.5
CC1(C)CC(=O)C(C=NCCN2CCNC2=O)=C(O)C1 | -0.9 | -5.1 | 10.4 | -8.4 | 5.3 | -5.4
CS(=O)(=O)Nc1cccc(NC(=O)C2Cc3c(-c4cccc(F)c4)ccnc3O2)c1 (configuration not stated) | -2.4 | 0.7 | -13.9 | 9.8 | 1.2 | 63.5*
